# Target: T1, Human factor Xa (Homo sapiens, UniProt P00742)
# By UniProt entry, the sequences of proteins in these tests, tags left out. Residues count along the entry.
# UniProt P00742, 41-179 partner limits assumed: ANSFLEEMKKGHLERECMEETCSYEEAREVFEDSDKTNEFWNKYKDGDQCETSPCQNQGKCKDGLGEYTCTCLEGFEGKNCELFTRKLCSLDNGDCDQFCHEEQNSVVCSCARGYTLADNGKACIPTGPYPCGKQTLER
# UniProt P00742, 235-488 limits assumed: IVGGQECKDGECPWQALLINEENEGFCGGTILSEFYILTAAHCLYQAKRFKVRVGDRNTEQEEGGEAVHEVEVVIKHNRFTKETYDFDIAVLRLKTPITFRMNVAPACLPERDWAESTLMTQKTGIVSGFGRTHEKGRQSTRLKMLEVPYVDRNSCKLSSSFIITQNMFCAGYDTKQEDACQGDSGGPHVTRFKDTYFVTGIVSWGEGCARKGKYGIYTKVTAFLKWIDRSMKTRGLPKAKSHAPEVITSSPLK
# T1 construct: Human factor Xa was prepared from purified human factor X obtained from Enzyme Research Laboratories; purchased Enzyme Research Laboratories
# Assay: Factor Xa assay: inhibition of chromogenic substrate (S2765) hydrolysis
# Format: biochemical
# Details: human factor Xa 0.5 nM, substrate 250 µM, 30 minute incubation, HBSA pH 7.5
substance,measurement,value
"N-Boc-D-phenylalanyl-L-aspartyl-L-prolyl-L-argininal [Boc-(D-Phe)-Pro-Arg-al, reference compound]",IC50,5.3 µM

# Reference: patent EP0627929B1, “INHIBITORS OF THROMBOSIS” (CORVAS INTERNATIONAL, INC., priority 1992, dated 1993)
